Target: T1, α-D-Mannosidase (jack bean) (Canavalia ensiformis, UniProt C0HJB3)
T1 construct: purchased Sigma
T1 sequence (C0HJB3 1-562 limits assumed): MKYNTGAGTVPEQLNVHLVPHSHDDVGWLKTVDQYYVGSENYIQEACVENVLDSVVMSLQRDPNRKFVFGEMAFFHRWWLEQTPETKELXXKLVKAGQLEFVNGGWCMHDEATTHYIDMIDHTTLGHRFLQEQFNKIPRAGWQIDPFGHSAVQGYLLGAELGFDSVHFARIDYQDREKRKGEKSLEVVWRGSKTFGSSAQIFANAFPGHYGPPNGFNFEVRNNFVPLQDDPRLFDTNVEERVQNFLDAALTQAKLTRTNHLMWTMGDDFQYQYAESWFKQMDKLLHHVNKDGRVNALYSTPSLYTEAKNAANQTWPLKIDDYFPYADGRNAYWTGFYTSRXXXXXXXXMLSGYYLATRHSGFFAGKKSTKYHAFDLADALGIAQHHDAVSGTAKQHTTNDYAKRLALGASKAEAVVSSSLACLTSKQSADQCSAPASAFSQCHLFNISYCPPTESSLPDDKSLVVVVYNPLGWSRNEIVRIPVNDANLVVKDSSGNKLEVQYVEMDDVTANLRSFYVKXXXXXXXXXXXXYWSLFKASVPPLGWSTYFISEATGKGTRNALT
T1 sequence (C0HJB3 563-981 limits assumed): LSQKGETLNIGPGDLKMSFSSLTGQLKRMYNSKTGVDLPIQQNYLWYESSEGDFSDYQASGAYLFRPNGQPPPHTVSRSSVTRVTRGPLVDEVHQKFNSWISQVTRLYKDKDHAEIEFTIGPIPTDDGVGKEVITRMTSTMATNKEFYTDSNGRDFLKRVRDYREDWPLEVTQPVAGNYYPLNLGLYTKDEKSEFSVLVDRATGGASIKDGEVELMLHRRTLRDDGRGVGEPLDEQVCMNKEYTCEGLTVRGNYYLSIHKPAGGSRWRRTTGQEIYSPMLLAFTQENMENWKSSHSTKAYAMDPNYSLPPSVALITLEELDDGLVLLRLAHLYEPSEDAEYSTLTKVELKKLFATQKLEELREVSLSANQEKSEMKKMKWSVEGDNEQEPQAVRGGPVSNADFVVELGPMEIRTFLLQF
Experiment: Glycosidase inhibition, α-D-mannosidase (jack bean)
Assay type: biochemical
Conditions: pH 6.5
Protocol: Materials: All of the buffers, enzymes, and substrates were purchased from Sigma and used as received. These included piperazine-N,N'-bis(2-ethanesulfonic acid) (PIPES), sodium acetate (NaOAc), ethylenediaminetetraacetic acid (EDTA), β-D-glucosidase (from sweet almond), p-nitrophenyl β-D-glucoside, α-D-glucosidase, p-nitrophenyl α-D-glucoside, β-N-acetyl-D-glucosaminedase, p-nitrophenyl β-N-acetyl-D-glucosaminide, α-D-mannosidase, and p-nitrophenyl α-D-mannoside.
f) α-D-Mannosidase: 5 mg of the solid protein were suspended in 1 mL of 3.0M (NH4)2 SO4 and 0.1 zinc acetate (ZnOAc), as distributed by Sigma.
g) Substrate solutions: all substrates were dissolved in the corresponding buffer solution for enzymatic assay.
For each inhibitor, five inhibitor concentrations, ranging from zero to three times Ki, were generally used to determine the Ki value. At each inhibitor concentration, six substrate concentrations, spanning from 0.4 Km to 4 Km, were used to obtain a single Lineweaver-Burk plot. The amount of enzyme added in each assay was adjusted so that less than 10 percent of the substrate, with its lowest substrate concentration, would be consumed within 45 seconds. Since all of the substrates have p-nitrophenol as leaving group, the assays were monitored at 400 nanometers (nm), where the molecular extinction coefficient, ε, was calibrated to be 3204.5M^-1 cm^-1 at pH 6.5. […]

OCC1NCC(O)C(O)C1O (stereo not shown) [Compound 23, 1-deoxynojirimycin]
Ki: 400 µM
